# Binding of CDR-mutated scFvs to a peptide of the spike HR2 region

The measurements come from Engelhart et al. 2022 (doi:10.1038/s41597-022-01779-4) through the FLAb antibody collection.

Antigen: PDVDLGDISGINAS, a 14-residue peptide of the SARS-CoV-2 spike HR2 region.

The variants keep the light chain, the linker and the frameworks of Ab-14 (scFv order VH, the linker GGGGSGGGGSGGGGS, VL).
VH: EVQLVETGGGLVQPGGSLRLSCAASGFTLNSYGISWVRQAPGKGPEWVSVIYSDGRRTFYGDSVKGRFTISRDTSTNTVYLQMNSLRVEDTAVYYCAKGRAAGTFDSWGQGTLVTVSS
VL: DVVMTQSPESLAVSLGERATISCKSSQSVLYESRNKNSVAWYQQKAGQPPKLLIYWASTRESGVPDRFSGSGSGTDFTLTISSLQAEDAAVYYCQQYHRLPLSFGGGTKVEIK

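The library (AAYL49) carries one to three amino acid substitutions per variant, with no insertions or deletions. The scFvs were displayed on barcoded MATa yeast, the peptide on MATalpha yeast. Binding brings cells together so that they mate, and sequencing counts the barcode pairs among the diploids. Each replicate has its own calibration line, from reference interactions of the BCL2 family. Mating was done three times.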

Positions count from residue 1 of the parent VH; F27A puts A in place of F.
The Kd shown is the geometric mean over detected replicates; a lower Kd is a better binder.
"no signal" means that the variant was in the library but no mating with the target was seen in any replicate; the authors take this as a sign of poor binding, and no number exists.
Nonspecific signal, from three strains lacking the peptide, appeared in 15% of pairings of library AAYL49, centred on 11 µM (5% of these signals below 680 nM); values are not corrected for it. The control count says in how many pairings with the empty strains this scFv gave a signal.

Kd (apparent),detected,control signals,changes
no signal,0/3,0/9,F27A I51T
no signal,0/3,2/9,Y32W G99I F105V
150 µM,2/3,3/9,L29F Y32V F59D
no signal,0/3,0/9,F27D I34E G61M
62 nM,3/3,2/9,G99I A101Q D106S
77 µM,1/3,7/9,L29G Y32A G33Q
no signal,0/3,0/9,L29G R57F V64H
2.5 µM,1/3,3/9,F27N S31M V64T
no signal,0/3,0/9,G33Y R57Y Y60R
no signal,0/3,1/9,G33V I34E A102Y
no signal,0/3,1/9,G33E I51E V64C
no signal,0/3,2/9,G26C Y32T D54H
no signal,0/3,1/9,R56T R57G Y60Q
no signal,0/3,0/9,G26S D54K K65Q
500 nM,1/3,2/9,L29A S35M R56G
1.2 µM,2/3,0/9,S53W F59Y R100W
3.8 µM,3/3,3/9,F59D F105P
no signal,0/3,2/9,S31E S63Q K65T
no signal,0/3,0/9,S31A I34L Y60N
2.3 µM,2/3,2/9,N30Y I34G Y60S
360 µM,3/3,5/9,Y32C G33H V64C
no signal,0/3,0/9,V50G D54Y
75 µM,1/3,2/9,T28D G55D F105D
1.2 µM,2/3,0/9,Y52P D62T G99F
no signal,0/3,1/9,S31M V64H S107H
960 nM,1/3,2/9,V64D G99L
no signal,0/3,0/9,F27L D54A G61I
no signal,0/3,2/9,F27S R100Q D106L
no signal,0/3,0/9,I51G D54Y S107L
no signal,0/3,0/9,G55D R56D S107W
no signal,0/3,1/9,D54C R56S V64C
11 µM,1/3,0/9,N30T S35A V64R
71 µM,1/3,1/9,Y52K S53R S107I
95 nM,3/3,1/9,G26I A101E
170 µM,3/3,4/9,S31W G33R A102F
no signal,0/3,1/9,G26H R56D K65I
no signal,0/3,0/9,R57I V64T A101F
27 µM,3/3,6/9,G26E S35K F59R
no signal,0/3,0/9,G55D R56S T104P
no signal,0/3,0/9,Y32T V64S F105R
no signal,0/3,0/9,G26P V64E
3.8 µM,1/3,2/9,V50T I51K D62L
no signal,0/3,1/9,S31P G55C D62M
no signal,0/3,0/9,V64W G99Y A101M
32 µM,2/3,6/9,I34A D54N R56A
no signal,0/3,1/9,F27V S31M D106S
1.1 µM,3/3,1/9,S53P R56F D106W
no signal,0/3,0/9,S35R R57E Y60E
14 µM,1/3,0/9,G33R R57H
160 µM,2/3,3/9,T28E L29R K65A
no signal,0/3,1/9,S35M A102R T104F
no signal,0/3,0/9,G26S I51S G99I
no signal,0/3,0/9,D54N S63L G103P
no signal,0/3,1/9,Y60V V64N K65N
3.9 µM,2/3,0/9,L29H S35F G61S
1.3 mM,1/3,1/9,V64E A101G T104D

A selection of 8 entries from above:

changes,Kd (apparent),detected,control signals
F27N S31M V64T,2.5 µM,1/3,3/9
L29A S35M R56G,500 nM,1/3,2/9
G26S D54K K65Q,no signal,0/3,0/9
G26S I51S G99I,no signal,0/3,0/9
G33R R57H,14 µM,1/3,0/9
S31W G33R A102F,170 µM,3/3,4/9
Y32W G99I F105V,no signal,0/3,2/9
Y32C G33H V64C,360 µM,3/3,5/9